# Binding of CDR-mutated scFvs to a peptide of the spike HR2 region

Source: Engelhart et al. 2022 (doi:10.1038/s41597-022-01779-4), MIT Lincoln Laboratory and A-Alpha Bio; data file from the FLAb repository.

Antigen: PDVDLGDISGINAS, a 14-residue peptide of the SARS-CoV-2 spike HR2 region.

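The parent was found by panning a naive human phage display library on the peptide. Library AAYL50 holds single substitutions and randomly drawn double and triple substitutions in the CDRs. The assay is AlphaSeq: two haploid yeast populations carry antibody and antigen on their surface. After mating in shaken culture at 30 °C for 16 h, diploids were selected and their barcode pairs sequenced. A regression on co-assayed BCL2-family reference pairs converts the normalised counts of each replicate to an apparent Kd. The assay was run in three technical replicates.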

The variants keep the heavy chain, the linker and the frameworks of Ab-14 (scFv order VH, the linker GGGGSGGGGSGGGGS, VL).
VH: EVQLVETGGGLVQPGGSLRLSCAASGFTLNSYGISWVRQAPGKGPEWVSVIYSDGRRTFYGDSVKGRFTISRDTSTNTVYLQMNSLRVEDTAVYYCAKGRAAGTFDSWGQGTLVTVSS
VL: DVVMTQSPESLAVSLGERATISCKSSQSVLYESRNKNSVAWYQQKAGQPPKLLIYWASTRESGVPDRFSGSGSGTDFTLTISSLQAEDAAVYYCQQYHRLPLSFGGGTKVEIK

Positions count from residue 1 of the parent VL; L30G puts G in place of L.
Affinities are written as log10 Kd with Kd in nM; a lower number is a better binder.
Where no diploid with the target was found in that replicate, the entry reads "n.d.": below detection, most likely a poor binder, though not proof of it.

changes	replicates, log10 nM	empty controls
L30G+Y97I+S103R	0.64 1.10 0.59	4 of 9 (4.41)
V39K+A40L+S58W	n.d. n.d. n.d.	0 of 9
A40K+A57T+R99C	n.d. 4.15 n.d.	1 of 9 (4.61)
S62L+Q96H	0.93 1.20 1.24	0 of 9
S26I+T59C+L102W	n.d. n.d. 5.67	0 of 9
S28K+Y97G+R99N	5.15 4.51 n.d.	5 of 9 (4.79)
S25M+V39L+E61I	0.07 0.37 0.08	0 of 9
S26R+E32A	1.67 1.70 1.82	0 of 9
S25K+Q27L+A40K	n.d. n.d. n.d.	1 of 9 (3.15)
Q27S+P101V	3.63 3.28 3.40	2 of 9 (4.14)
L30H+H98Q+S103H	1.96 2.14 2.75	1 of 9 (3.74)
N35F+N37R+S38G	n.d. n.d. n.d.	1 of 9 (3.32)
R34M+E61D+L102Q	1.50 1.41 1.46	4 of 9 (4.94)
S38K+T59L+Q96G	n.d. n.d. n.d.	0 of 9
S28V+W56F+R60N	5.06 4.47 4.53	6 of 9 (4.72)
Q95I+S103G	n.d. n.d. n.d.	0 of 9
R34S+T59Y+Q95E	1.12 1.24 1.29	4 of 9 (5.40)
S25W+R34E+R60Q	4.92 n.d. n.d.	2 of 9 (4.78)
Y31K+T59H+Q96L	4.23 n.d. 4.20	2 of 9 (4.22)
W56Y+L102Y	n.d. n.d. n.d.	2 of 9 (4.20)
V29W+A57Y+H98V	n.d. n.d. n.d.	0 of 9
Y31R+A57D+H98Q	2.16 2.41 2.20	1 of 9 (3.66)
R34G+K36I+L102P	0.53 0.78 0.83	3 of 9 (5.03)
E32L+H98Y+L102G	n.d. n.d. n.d.	0 of 9
R34M+T59W+Y97A	4.17 5.77 4.67	8 of 9 (4.30)
S28L	1.22 1.27 1.36	0 of 9
L30V+S33W	2.24 2.62 2.89	0 of 9
K24I+R34L+W56L	1.25 1.23 1.40	1 of 9 (4.87)
S38Q+T59V+Q95R	4.40 3.46 3.63	2 of 9 (4.39)
A57W+R60F+S103C	n.d. n.d. n.d.	1 of 9 (3.52)
Y31S+E61F+Q96F	2.94 2.76 3.84	4 of 9 (4.79)
K36L+W56T+L102V	2.52 3.19 n.d.	0 of 9
Q95P	1.71 1.56 1.89	2 of 9 (3.39)
S33Q+R60Q+L100W	n.d. 4.92 4.72	4 of 9 (4.74)
N35H+W56K+T59L	n.d. n.d. n.d.	0 of 9
S58W+P101G+L102Y	n.d. n.d. n.d.	0 of 9
N37A	1.31 1.39 1.42	5 of 9 (4.02)
Q27G+R99Y+L100S	1.75 2.65 2.04	3 of 9 (4.53)
S28V+V29K+S58I	2.77 n.d. n.d.	1 of 9 (3.47)
S38D+S62N+Q96F	2.99 n.d. n.d.	3 of 9 (3.27)
V29M+E32C+K36Q	1.74 1.84 1.61	2 of 9 (4.20)
W56G+L102W	n.d. n.d. n.d.	0 of 9
V29A+E32L+N35L	2.46 2.23 2.43	7 of 9 (4.38)
K36V+S62D+L102F	0.51 0.65 0.49	5 of 9 (5.37)
K36D+T59W+R60W	n.d. n.d. n.d.	0 of 9

A selection of 6 entries from above:

{"changes": "Y31S+E61F+Q96F", "replicates, log10 nM": "2.94 2.76 3.84", "empty controls": "4 of 9 (4.79)"}
{"changes": "L30H+H98Q+S103H", "replicates, log10 nM": "1.96 2.14 2.75", "empty controls": "1 of 9 (3.74)"}
{"changes": "L30V+S33W", "replicates, log10 nM": "2.24 2.62 2.89", "empty controls": "0 of 9"}
{"changes": "S26I+T59C+L102W", "replicates, log10 nM": "n.d. n.d. 5.67", "empty controls": "0 of 9"}
{"changes": "S38Q+T59V+Q95R", "replicates, log10 nM": "4.40 3.46 3.63", "empty controls": "2 of 9 (4.39)"}
{"changes": "S38K+T59L+Q96G", "replicates, log10 nM": "n.d. n.d. n.d.", "empty controls": "0 of 9"}

In this assay the parent's reference entry averaged 0.65; its copy inside this library read 1.68.
As a blank, each scFv also met three strains without target: over library AAYL50, 18% of these pairings were detected, typically at 4.19 and seldom below 2.99. For each scFv, signals with the empty controls are counted beside the result, with their mean in brackets.